## Apparent affinities of Ab-14 variants for a coronavirus HR2 peptide

Binding partner: SARS-CoV-2 spike HR2 peptide, sequence PDVDLGDISGINAS.

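The parent was found by panning a naive human phage display library on the peptide. These sequences belong to a second round, designed from the earlier measurements on random variants of the parent. Their group label is 14H_GPLM_HC (GPLM: also part of the Gaussian process libraries; HC: hill climbing; a sequence that several methods proposed may carry one label only). The scFvs were displayed on barcoded MATa yeast, the peptide on MATalpha yeast. Mating (16 h, 30 °C) was followed by selection of diploids and sequencing of their barcodes. Scores were corrected for input abundance and mapped to Kd with protein pairs of known affinity run in the same pool. The assay was run in six technical replicates.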

Ab-14 is the parent antibody, in scFv form: VH, then a 15-residue (Gly4Ser)3 linker, then VL. The light chain is unchanged in all variants.
VH: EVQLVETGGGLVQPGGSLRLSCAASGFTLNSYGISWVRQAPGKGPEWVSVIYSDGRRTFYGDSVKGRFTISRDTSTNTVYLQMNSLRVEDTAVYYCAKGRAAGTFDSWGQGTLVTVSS
VL: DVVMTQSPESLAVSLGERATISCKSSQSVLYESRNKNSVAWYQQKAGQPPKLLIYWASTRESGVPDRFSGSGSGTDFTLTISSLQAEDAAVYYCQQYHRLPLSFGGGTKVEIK

Sequences are complete VH domains.
Scale: log10 of Kd in nM, estimated from mating counts; low values are strong binders.
An entry "nd" has no value in the source: the pair was not observed among the diploids in that replicate. This suggests poor binding but is not conclusive.

{"VH": "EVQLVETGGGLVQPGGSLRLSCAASGFDLNSYGISWVRQAPGKGPEWVSVIYSDGRRTFYQDSVKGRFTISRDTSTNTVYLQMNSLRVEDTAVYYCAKGNAAGTFDSWGQGTLVTVSS", "log10 Kd, replicates": "1.55 / 0.24 / 1.43 / 0.93 / 0.61 / 1.78", "empty controls": "0/18"}
{"VH": "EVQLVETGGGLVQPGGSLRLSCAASGFTLNDYGISWVRQAPGKGPEWVSVIYSDGRRTFYIDSVKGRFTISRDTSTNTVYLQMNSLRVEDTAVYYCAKGRAAGTFWSWGQGTLVTVSS", "log10 Kd, replicates": "nd / nd / nd / nd / nd / nd", "empty controls": "1/18 (-0.42)"}
{"VH": "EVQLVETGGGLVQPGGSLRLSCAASGFTLDSYGISWVRQAPGKGPEWVSVIYSDGRRTFYSDSVKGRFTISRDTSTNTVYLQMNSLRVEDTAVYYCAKGRAGGTFDSWGQGTLVTVSS", "log10 Kd, replicates": "1.39 / 1.23 / 0.98 / 0.77 / 0.92 / 0.85", "empty controls": "3/18 (2.76)"}
{"VH": "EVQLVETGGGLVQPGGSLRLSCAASGFTLNDYGISWVRQAPGKGPEWVSVIYSDGRRTFYGDSVKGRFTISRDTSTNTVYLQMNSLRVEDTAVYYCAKGRIAGTFWSWGQGTLVTVSS", "log10 Kd, replicates": "nd / nd / nd / nd / nd / nd", "empty controls": "0/18"}
{"VH": "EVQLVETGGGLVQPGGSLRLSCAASGFNLNEYGISWVRQAPGKGPEWVSVIYSDGRRTFYTDSVKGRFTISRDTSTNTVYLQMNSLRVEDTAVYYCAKGRQAGTFDSWGQGTLVTVSS", "log10 Kd, replicates": "0.82 / -0.55 / -0.25 / -0.23 / 0.56 / 0.64", "empty controls": "0/18"}
{"VH": "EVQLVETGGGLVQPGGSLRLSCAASGFTLNDYGISWVRQAPGKGPEWVSVIYSDGRRTQYSDSVKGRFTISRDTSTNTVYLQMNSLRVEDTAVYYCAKGRAAGTFDSWGQGTLVTVSS", "log10 Kd, replicates": "0.72 / nd / 1.50 / 1.07 / 2.01 / 2.53", "empty controls": "3/18 (2.06)"}
{"VH": "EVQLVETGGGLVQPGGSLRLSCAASGFTLNQYGISWVRQAPGKGPEWVSVIYSDGQRTFYSDSVKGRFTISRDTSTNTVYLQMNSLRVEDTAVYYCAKGQAAGTFDSWGQGTLVTVSS", "log10 Kd, replicates": "-0.12 / -0.02 / -0.58 / -0.02 / -0.20 / 0.06", "empty controls": "1/18 (1.77)"}
{"VH": "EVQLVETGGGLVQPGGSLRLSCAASGFTLDSYGISWVRQAPGKGPEWVSVIYSDGRRTFYGDKVKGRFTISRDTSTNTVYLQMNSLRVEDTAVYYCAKGRTAGTFDSWGQGTLVTVSS", "log10 Kd, replicates": "1.23 / 1.06 / 0.54 / 0.30 / 0.84 / 0.65", "empty controls": "0/18"}
{"VH": "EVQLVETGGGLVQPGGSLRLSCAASGFTLNDYGISWVRQAPGKGPEWVSVIYSDGRRTFYHDSVKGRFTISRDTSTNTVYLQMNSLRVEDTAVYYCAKGRAAGTFWSWGQGTLVTVSS", "log10 Kd, replicates": "nd / nd / nd / nd / nd / nd", "empty controls": "0/18"}
{"VH": "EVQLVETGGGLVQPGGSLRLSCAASGFYLNSYGISWVRQAPGKGPEWVSVIYSDGRRTFYDDSVKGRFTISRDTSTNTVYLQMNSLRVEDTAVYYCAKGHLAGTFDSWGQGTLVTVSS", "log10 Kd, replicates": "2.05 / 1.63 / 1.20 / 1.29 / 0.70 / 1.71", "empty controls": "0/18"}
{"VH": "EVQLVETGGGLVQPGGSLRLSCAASGFTLNQYGISWVRQAPGKGPEWVSVIYSDGRRTFYADSVKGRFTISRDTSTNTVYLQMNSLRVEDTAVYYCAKGRLAGTFDSWGQGTLVTVSS", "log10 Kd, replicates": "0.65 / 0.36 / 0.68 / 0.54 / -0.20 / 0.32", "empty controls": "0/18"}
{"VH": "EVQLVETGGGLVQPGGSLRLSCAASGFTLNEYGISWVRQAPGKGPEWVSVIYSDGRRTFYTDSVKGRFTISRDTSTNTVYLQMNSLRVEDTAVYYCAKGRFAGTFDCWGQGTLVTVSS", "log10 Kd, replicates": "nd / nd / nd / nd / nd / nd", "empty controls": "0/18"}
{"VH": "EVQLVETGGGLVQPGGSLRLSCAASGFTLNDYGISWVRQAPGKGPEWVSVIYSDGRRTFYSDSVKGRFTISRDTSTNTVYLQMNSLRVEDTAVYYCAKGRAAGIFDSWGQGTLVTVSS", "log10 Kd, replicates": "nd / nd / nd / nd / nd / 1.48", "empty controls": "0/18"}
{"VH": "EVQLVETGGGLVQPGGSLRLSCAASGFYLNSYGISWVRQAPGKGPEWVSVIYSDGRRTFYDDSVKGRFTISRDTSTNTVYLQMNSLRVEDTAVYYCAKGKLAGTFDSWGQGTLVTVSS", "log10 Kd, replicates": "1.47 / 2.17 / 1.10 / nd / 3.17 / 1.03", "empty controls": "0/18"}
{"VH": "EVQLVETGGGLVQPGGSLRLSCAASGFDLNSYGISWVRQAPGKGPEWVSVIYSDGRRTFYGDSVKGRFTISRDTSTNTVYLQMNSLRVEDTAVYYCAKGRAAGHFCSWGQGTLVTVSS", "log10 Kd, replicates": "nd / nd / 1.62 / nd / nd / nd", "empty controls": "0/18"}
{"VH": "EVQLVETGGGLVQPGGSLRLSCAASGFTLNDYGISWVRQAPGKGPEWVSVIYSDGRRTFYGDSVKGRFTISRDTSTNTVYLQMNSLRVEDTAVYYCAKGRTAGTFISWGQGTLVTVSS", "log10 Kd, replicates": "nd / nd / nd / nd / nd / 2.13", "empty controls": "0/18"}
{"VH": "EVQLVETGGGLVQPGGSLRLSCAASGFGLNEYGISWVRQAPGKGPEWVSVIYSDGRRTFYSDSVKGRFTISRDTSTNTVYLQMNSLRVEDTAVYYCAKGRTAGTFDSWGQGTLVTVSS", "log10 Kd, replicates": "0.28 / -0.60 / -0.03 / -0.21 / -0.04 / 0.06", "empty controls": "0/18"}
{"VH": "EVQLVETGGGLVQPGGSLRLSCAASGFTLNSYGISWVRQAPGKGPEWVSVIYSDGRRTFYSDSVKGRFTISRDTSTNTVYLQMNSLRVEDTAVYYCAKGNAGGTFDTWGQGTLVTVSS", "log10 Kd, replicates": "1.25 / 0.81 / 0.92 / 0.78 / 1.37 / 0.75", "empty controls": "0/18"}
{"VH": "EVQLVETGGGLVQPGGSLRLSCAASGFTLNQYGISWVRQAPGKGPEWVSVIYSDGRRTFYSDSVKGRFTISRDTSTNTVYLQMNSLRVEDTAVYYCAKGEAAGTFDSWGQGTLVTVSS", "log10 Kd, replicates": "0.04 / -0.13 / -0.21 / -0.36 / -0.35 / -0.16", "empty controls": "1/18 (2.67)"}
{"VH": "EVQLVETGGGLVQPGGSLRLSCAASGFTLNSYGISWVRQAPGKGPEWVSVIYSDGRKTFYDDSVKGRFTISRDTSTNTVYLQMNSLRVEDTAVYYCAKGQTAGTFDSWGQGTLVTVSS", "log10 Kd, replicates": "2.93 / 1.49 / 2.18 / 1.35 / 0.73 / 1.99", "empty controls": "0/18"}
{"VH": "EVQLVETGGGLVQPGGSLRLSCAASGFTLNEYGISWVRQAPGKGPEWVSVIYSDGRRTWYTDSVKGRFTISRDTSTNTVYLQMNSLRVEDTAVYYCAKGRTAGTFDSWGQGTLVTVSS", "log10 Kd, replicates": "0.30 / 0.07 / -0.34 / -0.24 / -0.14 / 0.06", "empty controls": "1/18 (2.28)"}
{"VH": "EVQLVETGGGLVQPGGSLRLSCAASGFTLNEYGISWVRQAPGKGPEWVSVIYSDGRRTFYTDSVKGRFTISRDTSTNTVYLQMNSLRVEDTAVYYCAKGRFAGTFESWGQGTLVTVSS", "log10 Kd, replicates": "1.39 / nd / nd / nd / nd / 2.30", "empty controls": "1/18 (1.96)"}
{"VH": "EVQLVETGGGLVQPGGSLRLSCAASGFTLNSYGISWVRQAPGKGPEWVSVIYSDGRRTFYDDSVKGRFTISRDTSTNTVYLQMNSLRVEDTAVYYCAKGKEAGTFDSWGQGTLVTVSS", "log10 Kd, replicates": "0.17 / 0.37 / 0.24 / 0.23 / 0.04 / 0.28", "empty controls": "1/18 (1.83)"}
{"VH": "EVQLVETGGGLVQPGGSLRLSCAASGFTLNEYGISWVRQAPGKGPEWVSVIYSDGRRTMYTDSVKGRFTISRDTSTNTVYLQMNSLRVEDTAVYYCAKGRFAGTFDSWGQGTLVTVSS", "log10 Kd, replicates": "0.86 / 0.63 / 0.80 / 0.58 / 1.41 / 0.83", "empty controls": "0/18"}
{"VH": "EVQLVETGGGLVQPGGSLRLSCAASGFTLNEYGISWVRQAPGKGPEWVSVIYSDGRRTFYKDSVKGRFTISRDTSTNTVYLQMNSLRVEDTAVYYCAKGRLAGTFDSWGQGTLVTVSS", "log10 Kd, replicates": "-0.18 / 0.15 / 0.17 / 0.39 / nd / 0.15", "empty controls": "0/18"}

2 of these entries, quoted again:

VH	log10 Kd, replicates	empty controls
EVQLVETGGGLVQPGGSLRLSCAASGFTLDSYGISWVRQAPGKGPEWVSVIYSDGRRTFYSDSVKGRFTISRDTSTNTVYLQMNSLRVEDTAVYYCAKGRAGGTFDSWGQGTLVTVSS	1.39 / 1.23 / 0.98 / 0.77 / 0.92 / 0.85	3/18 (2.76)
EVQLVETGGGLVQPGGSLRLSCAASGFTLNEYGISWVRQAPGKGPEWVSVIYSDGRRTMYTDSVKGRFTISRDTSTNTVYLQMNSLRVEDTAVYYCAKGRFAGTFDSWGQGTLVTVSS	0.86 / 0.63 / 0.80 / 0.58 / 1.41 / 0.83	0/18

A sequence measured in both rounds can read differently, since the two assays cover different ranges.
Background: pairings of all heavy chain designs with three empty control strains gave a value in 1% of cases (median 2.08, 5th percentile 0.84). Values in that range, when seen in few replicates, are hard to tell from nonspecific mating. The control count says in how many pairings with the empty strains this scFv gave a signal, with their mean in brackets.
The authors averaged sequences with at least three values out of six and counted those with two or fewer as poor binders.

The measurements come from Li et al. 2023 (doi:10.1038/s41467-023-39022-2) through the FLAb antibody collection.